# Data reported in PubChem BioAssay AID488961 (Johns Hopkins Ion Channel Center, 2010).
# Chains of the proteins cited; added tags and fusions are not shown. Lines headed by an entry give the natural chain unless they say otherwise; changes in a name come on top.
# UniProt Q61143: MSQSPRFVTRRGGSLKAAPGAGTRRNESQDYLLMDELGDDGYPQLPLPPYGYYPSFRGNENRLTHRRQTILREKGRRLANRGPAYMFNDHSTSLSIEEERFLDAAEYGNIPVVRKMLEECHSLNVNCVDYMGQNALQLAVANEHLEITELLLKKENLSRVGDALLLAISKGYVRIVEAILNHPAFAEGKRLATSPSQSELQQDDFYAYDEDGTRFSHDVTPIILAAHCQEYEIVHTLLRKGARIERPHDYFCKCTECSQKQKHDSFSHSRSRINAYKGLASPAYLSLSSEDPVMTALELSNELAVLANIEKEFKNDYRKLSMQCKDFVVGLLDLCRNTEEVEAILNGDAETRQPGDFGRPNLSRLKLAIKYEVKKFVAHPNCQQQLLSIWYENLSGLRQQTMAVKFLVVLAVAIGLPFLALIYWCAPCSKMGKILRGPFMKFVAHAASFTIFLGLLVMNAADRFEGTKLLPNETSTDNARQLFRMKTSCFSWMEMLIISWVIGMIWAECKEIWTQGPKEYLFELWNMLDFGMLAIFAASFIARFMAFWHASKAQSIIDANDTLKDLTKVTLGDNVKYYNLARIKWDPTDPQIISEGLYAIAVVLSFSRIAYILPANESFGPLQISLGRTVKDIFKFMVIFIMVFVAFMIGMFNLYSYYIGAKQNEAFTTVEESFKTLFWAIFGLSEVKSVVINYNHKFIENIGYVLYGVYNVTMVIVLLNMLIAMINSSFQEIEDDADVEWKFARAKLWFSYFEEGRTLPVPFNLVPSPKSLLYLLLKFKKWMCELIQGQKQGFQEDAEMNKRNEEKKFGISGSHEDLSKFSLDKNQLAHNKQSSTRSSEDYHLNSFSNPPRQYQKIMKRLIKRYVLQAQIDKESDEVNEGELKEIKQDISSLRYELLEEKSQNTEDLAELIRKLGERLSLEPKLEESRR
# The list shows a part of the results, in another mix than the full data. Calls of active or inactive are those of the source.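 Rule for the calls: active = ratio signal rise beyond 5 SD above unstimulated control wells' mean, seen in both duplicate runs; inactive = the rest.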
# Target: Short transient receptor potential channel 6 (Mus musculus) (UniProt Q61143)
# Assay: mouse TRPC6 channel activators, confirmation, HEK293 cells, membrane potential dye, duplicate (AID 488961);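 note: plate controls were buffer EC0 wells for no effect and acetylcholine ECmax response for full effect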
# Conditions: HEK293-TRPC6 membrane potential dye fluorescence, FDSS; at 10 µM; hits give high values
row,SMILES,activation
1,CN1CCCC(OC(=O)C(c2ccccc2)c2ccccc2)C1 (stereo not drawn),inactive: 0%
2,O=[N+]([O-])c1ccc(O)c(/C=N/Nc2ccc([N+](=O)[O-])cc2[N+](=O)[O-])c1,inactive: 0%
3,CCC1=CC2Cc3nc4ccc(Cl)cc4c(N)c3C(C1)C2 (stereo not drawn),inactive: 0%
